The list shows a part of the results, in another mix than the full data. Some results for these compounds are left out of this collection, so the calls shown say nothing about other tests. Activity calls are given as the source filed them.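 How the source made its calls: active means activation factor of 2 or more at 20 µM, relative to plate controls; inactive means the rest.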

Amino acid sequences for entries named in this document (tags omitted).
UniProt P34949, whole entry: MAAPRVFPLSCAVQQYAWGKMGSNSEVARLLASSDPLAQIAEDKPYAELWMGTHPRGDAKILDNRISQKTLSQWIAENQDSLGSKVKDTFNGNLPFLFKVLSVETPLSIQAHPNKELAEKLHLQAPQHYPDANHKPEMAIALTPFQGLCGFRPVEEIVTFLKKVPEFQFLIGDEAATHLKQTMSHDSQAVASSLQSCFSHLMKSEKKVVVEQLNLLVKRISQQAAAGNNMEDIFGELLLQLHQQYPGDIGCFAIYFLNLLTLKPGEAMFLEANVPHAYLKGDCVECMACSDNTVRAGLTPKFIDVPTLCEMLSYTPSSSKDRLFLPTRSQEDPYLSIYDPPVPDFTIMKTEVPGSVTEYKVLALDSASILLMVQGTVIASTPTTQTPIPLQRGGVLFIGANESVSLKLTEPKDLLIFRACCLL

The assay concerns the target Mannose-6-phosphate isomerase (Homo sapiens) (UniProt P34949). Kind of assay: activators of human PMI, primary screen, biochemical, fluorescence intensity, near-Km mannose 6-phosphate (AID 1214). The settings on record: purified human PMI, coupled resazurin fluorescence, 20 min, at 20 µM; hits give high values, 1 = vehicle control, 0 substrate-free wells.
As for `Cc1ccccc1C(=O)NCC1(N2CCCCC2)CCCCC1`, the activation factor result was “inactive”.

On to `CN(C)C1CCCC1OC(=O)C(O)(c1ccccc1)c1ccccc1` (centres undefined), for which the activation factor result was “inactive”.

With `CCN1CCCC(OC(=O)C2(O)c3ccccc3C=Cc3ccccc32)C1` (centres undefined), the activation factor entry is “inactive”.

For `C=CCN1CCN(CCOC(=O)C(O)(c2ccccc2)c2ccccc2)CC1`, the activation factor was inactive: 1.2.

On to `O=C(NCC1(N2CCCCC2)CCCCC1)c1cc([N+](=O)[O-])ccc1Cl`, for which the activation factor is inactive: 1.1.

For the compound `CC(C)N1C(=O)CC2(CCN(CCOC(=O)C(O)(c3ccccc3)c3ccccc3)CC2)C1=O`, the activation factor entry is “inactive”.

As to `O=C(OC1CN2CCC1CC2)C(CO)(c1ccccc1)c1ccccc1` (centres undefined), the activation factor entry was “inactive”.

Take `CN(C)c1cccc(C(=O)NCC2(N(C)C)CCCCC2)c1`: the activation factor was inactive: 0.9.

`COc1cccc(C(=O)NCC2(N3CCCCC3)CCCCC2)c1`: the activation factor was inactive: 0.9.

The values are drawn from PubChem BioAssay AID1214 (Sanford-Burnham Center for Chemical Genomics, 2008).
